The values below come from PubChem BioAssay AID1946 (Johns Hopkins Ion Channel Center, 2009).

By UniProt entry, the sequences of proteins in these tests, tags left out.
UniProt O88943, whole entry: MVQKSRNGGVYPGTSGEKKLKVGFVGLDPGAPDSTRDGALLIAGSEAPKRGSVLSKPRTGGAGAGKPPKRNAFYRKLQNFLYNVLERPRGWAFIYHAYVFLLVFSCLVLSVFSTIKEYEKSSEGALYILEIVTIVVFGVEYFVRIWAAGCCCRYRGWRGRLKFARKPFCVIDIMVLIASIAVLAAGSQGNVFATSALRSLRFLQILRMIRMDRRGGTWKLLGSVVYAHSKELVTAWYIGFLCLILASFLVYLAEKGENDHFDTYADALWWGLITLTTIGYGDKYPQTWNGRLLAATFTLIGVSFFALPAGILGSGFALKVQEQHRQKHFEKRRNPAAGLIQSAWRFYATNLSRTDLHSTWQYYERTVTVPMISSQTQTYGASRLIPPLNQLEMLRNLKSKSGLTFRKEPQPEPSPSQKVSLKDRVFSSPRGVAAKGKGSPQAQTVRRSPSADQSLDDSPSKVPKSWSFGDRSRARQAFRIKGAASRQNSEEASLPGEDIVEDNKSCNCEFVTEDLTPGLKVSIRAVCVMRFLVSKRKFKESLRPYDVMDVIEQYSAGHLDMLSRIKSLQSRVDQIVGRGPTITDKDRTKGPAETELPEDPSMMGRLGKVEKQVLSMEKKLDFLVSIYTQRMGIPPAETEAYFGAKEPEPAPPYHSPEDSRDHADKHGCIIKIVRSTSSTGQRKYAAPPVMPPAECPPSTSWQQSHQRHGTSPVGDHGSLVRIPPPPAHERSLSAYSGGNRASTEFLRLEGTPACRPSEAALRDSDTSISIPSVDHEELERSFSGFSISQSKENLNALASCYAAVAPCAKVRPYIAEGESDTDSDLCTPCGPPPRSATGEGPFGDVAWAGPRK

Only a part is listed here, and it is no random draw. Calls of active or inactive are those of the source.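 How the source made its calls: active means readout below zero, meaning a drop past 3 SD under the dofetilide-free negative control mean; inactive means the rest.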

This experiment concerns the target Potassium voltage-gated channel subfamily KQT member 2 (Rattus norvegicus) (UniProt O88943). In words: KCNQ2 blockade in CHO cells – cell-based, FluxOR thallium flux, counter-screen for hERG block protector project, confirmation (AID 1946). The following applies: FluxOR thallium flux fluorescence, at 10 µM, active compounds read low, zero marks the 3-SD hit cutoff.
Take `CCOC(=O)N1CCC(Nc2ccc(OC)cc2)CC1`: the activity change vs negative control was inactive: 14.6%.
